Measured values: US6432655B1, “Method of obtaining compositions” (Synaptic Pharmaceutical Corporation, priority 1992, dated 2002)

Chains of the proteins cited; added tags and fusions are not shown.
UniProt P32305, whole entry: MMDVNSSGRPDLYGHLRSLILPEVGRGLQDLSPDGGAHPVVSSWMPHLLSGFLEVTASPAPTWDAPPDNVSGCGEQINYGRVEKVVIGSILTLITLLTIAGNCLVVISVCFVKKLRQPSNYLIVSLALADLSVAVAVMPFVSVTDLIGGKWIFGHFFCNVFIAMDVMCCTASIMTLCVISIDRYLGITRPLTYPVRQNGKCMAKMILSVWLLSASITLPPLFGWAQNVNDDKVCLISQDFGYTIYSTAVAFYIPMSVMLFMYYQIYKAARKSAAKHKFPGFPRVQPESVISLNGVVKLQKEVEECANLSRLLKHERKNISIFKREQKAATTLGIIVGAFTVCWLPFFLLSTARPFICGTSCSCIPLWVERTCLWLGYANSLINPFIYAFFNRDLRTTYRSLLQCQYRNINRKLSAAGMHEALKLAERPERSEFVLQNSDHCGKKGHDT

Target: T1, 5-HT4B receptor (Rattus norvegicus, UniProt P32305)
T1 construct: from tissue; host or cells: rat brain cryostat sections (20 µm)
Assay: [3H]5-CT receptor autoradiography on rat brain sections
Assay type: binding
Conditions: 5 μM methiothepin

Q: For `CSc1ccc2c(c1)C(N1CCN(C)CC1)Cc1ccccc1S2` (stereo not shown) [Methiothepin], which “effect on [3H]5-CT binding remaining after the masks” value is on record?
A: Its value is “abolished”.
